Data as given in paper PMC8837702 (Archives of toxicology, 2021).
“Also recorded” adds a separate entry of the source.

Test system: UV5 DNA repair-deficient CHO cells stably expressing CYP1A1 and NAT1
Assay: dG-C8-ABP adduct quantification by mass spectrometry
Assay type: cell-based, Chinese hamster
Conditions: in situ, CHO cells treated 24 hr

9,10-dihydro-9,10-dioxo-1,2-anthracenediyl diethyl ester [Compound 10]
ABP-induced dG-C8-ABP adduct formation: decreased; also recorded: concentration -dependent inhibition
